# In the supplement of paper PMC7858590:
# Shown are results outside the selection of lowest values, which stands elsewhere.
# Test system: human monocyte-derived macrophages (M0)
# Assay: cell shape (eccentricity) Z-score vs DMSO control; higher = more elongated, M2-like morphology
# Conditions: 20 µM; 24 h; macrophage state: M0 (M-CSF)
# Protocol: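 Primary human monocyte-derived macrophages (M-CSF differentiated, pooled from 4 donors, 5000 cells/well in 384-well plates) were treated with each compound at 20 uM for 24 h, then fixed and stained with phalloidin/DAPI and imaged on an Opera Phenix (6 fields, about 1000 cells/well). Cell eccentricity was measured with CellProfiler, and a Z-score (t-test) was computed against 4 DMSO control wells in the same row. Negative values mean round (M1-like) cells and positive values mean elongated (M2-like) cells; the paper's hit cutoffs are Z <= -4 (M1) and Z >= 6 (M2). Scale: negative = round, M1-like.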
row,Compound,cell shape (Z-score)
1,N=C(NCCc1ccc(I)cc1)SCCCc1c[nH]cn1,0.0237
